According to PubChem BioAssay AID504577 (NMMLSC, 2011):
This is a selection; strong and weak results do not stand in their true shares. The source made the active and inactive calls. Rule as the data show it: active = response mostly above about 7.3% (no sharp cut-off); inactive = mostly below about 5.4%.

Test: regulators of yeast V-ATPase proton pumping, primary screen, pHLuorin cytosolic pH fluorescence (AID 504577)
Conditions: S. cerevisiae, at 10 µM, active compounds read high

| SMILES | response |
| --- | --- |
| COc1ccccc1OP(C)(=O)Nc1cccc(Br)c1 (stereo unspecified) | inactive: -3.28% |
| Cc1nc2ccc3ccccc3c2s1.O=[N+]([O-])c1cc([N+](=O)[O-])c(O)c([N+](=O)[O-])c1 | inactive: 2.58% |
| O=[N+]([O-])c1cc([N+](=O)[O-])c(-c2cnn(-c3ccccc3)c2)c([N+](=O)[O-])c1 | inactive: 1.34% |
| O=[N+]([O-])c1cc([N+](=O)[O-])c(-n2nnc3ccccc32)c([N+](=O)[O-])c1 | inactive: -0.98% |
| CP(=O)(Nc1ccc(SC(F)(F)F)cc1)Oc1ccccc1 (stereo unspecified) | inactive: -0.39% |
| CCCOc1ccc(NP(C)(=O)Oc2ccc(Cl)cc2)cc1 (stereo unspecified) | inactive: 0.61% |
| COc1ccccc1OP(C)(=O)Nc1c(C)cccc1C (stereo unspecified) | inactive: -2.33% |
| CN1CCCCC1COC(=O)C1(O)c2ccccc2CCc2ccccc21 (stereo unspecified) | inactive: -5.37% |
| CCOC(=O)C(CC)C1=NC(C)(C)Cc2ccccc21.O=[N+]([O-])c1cc([N+](=O)[O-])c(O)c([N+](=O)[O-])c1 (stereo unspecified) | inactive: 0.88% |
| O=[N+]([O-])c1cc([N+](=O)[O-])c(Nc2nnnn2CCO)c([N+](=O)[O-])c1 | inactive: -1% |
| CC1=C2N=C(C=C3N=C(C(C)=C4[N-][C@@](C)([C@@H]5N=C1[C@](C)(CCC(=O)NC[C@@H](C)OP(=O)([O-])O[C@H]1[C@@H](O)[C@@H](n6cnc7cc(C)c(C)cc76)O[C@@H]1CO)[C@H]5CC(N)=O)[C@@](C)(CC(N)=O)[C@@H]4CCC(N)=O)[C@@](C)(CC(N)=O)[C@@H]3CCC(N)=O)C(C)(C)[C@@H]2CCC(N)=O.[C-]#N.[Co+3] | inactive: 0.43% |
| COc1ccccc1OP(C)(=O)Nc1ccccc1 (stereo unspecified) | inactive: -1.81% |
| CP(=O)(Nc1ccccc1Br)Oc1ccccc1 (stereo unspecified) | inactive: 0.54% |
| CP(=S)(Nn1cnnc1)Oc1ccccc1 (stereo unspecified) | inactive: 2.55% |
| CP(=O)(Nc1ccccn1)Oc1ccc(Cl)cc1 (stereo unspecified) | inactive: -2.83% |
| CCOP(C)(=S)SCC(=O)NC(C)C(=O)O (stereo unspecified) | inactive: 6.07% |
| CCOC(=O)c1ccc(NP(C)(=O)Oc2ccc(OC)cc2)cc1 (stereo unspecified) | inactive: -4.2% |
| O=[N+]([O-])c1cc([N+](=O)[O-])c(O)c([N+](=O)[O-])c1.c1ccc(Oc2ccncc2)cc1 | inactive: -4.47% |

| SMILES | response |
| --- | --- |
| Cc1cc(C)cc(OP(C)(=O)Nc2ccc(SC(F)(F)F)cc2)c1 (stereo unspecified) | inactive: -0.76% |
| CCc1ccc(OP(C)(=O)N2CCN(c3ccc([N+](=O)[O-])cc3)CC2)cc1 (stereo unspecified) | inactive: 3.23% |
| CP(=O)(NC(=O)Nc1ccccc1)Oc1ccccc1 (stereo unspecified) | inactive: 3.33% |
| CP(=O)(Oc1ccccc1)OC(c1ccccc1)C(F)(F)F (stereo unspecified) | inactive: 0.6% |
| Cc1cccc(C)c1OP(C)(=O)Nc1ccc(SC(F)(F)F)cc1 (stereo unspecified) | inactive: 0.72% |
| Cc1ccc(Nc2c([N+](=O)[O-])cc([N+](=O)[O-])cc2[N+](=O)[O-])cc1 | inactive: 3.49% |
| CP(=O)(Nc1ccc(SC(F)(F)F)cc1)Oc1ccc(Cl)cc1 (stereo unspecified) | inactive: 3.67% |
| CCN(CC)CCCOC(=O)C(O)(c1ccccc1)c1ccccc1 | inactive: 2.25% |
| COc1ccc(OP(C)(=O)Nc2cccc(F)c2)cc1 (stereo unspecified) | inactive: 3.56% |
| COc1ccccc1OP(C)(=O)Nc1cc(Cl)ccc1C (stereo unspecified) | inactive: -0.1% |
| Cc1cc(C)cc(OP(C)(N)=O)c1 (stereo unspecified) | inactive: -0.39% |
| CCOC(=O)c1ccc(NP(C)(=O)Oc2ccccc2)cc1 (stereo unspecified) | inactive: 0.41% |
| Cc1ccc(NP(C)(=O)Oc2ccccc2)c(C)c1 (stereo unspecified) | inactive: 3.9% |
| COc1ccccc1OP(C)(=O)Nc1ccc(C)cc1 (stereo unspecified) | inactive: 2.52% |
| Cc1cccc(C)c1OP(C)(N)=O (stereo unspecified) | inactive: -0.84% |
| CC(C)(C)c1ccc(OP(C)(=O)Nc2ccc(SC(F)(F)F)cc2)cc1 (stereo unspecified) | inactive: 1.85% |
| O=[N+]([O-])c1ccc2c(c1)C=Nc1ccccc1O2 | inactive: -0.12% |
| O=[N+]([O-])c1cc([N+](=O)[O-])c(Nc2cccnc2)c([N+](=O)[O-])c1 | inactive: -1.26% |
